PubChem BioAssay (NCI)
The entries are a selection whose mix differs from that of the whole data set. More than one record can exist for a structure, and the calls need not agree. Calls of active or inactive are those of the source. Cut-off read from the data, not from the text of the source: active = growth inhibition above about 70%; inactive = the rest.

Assay: NCI Yeast Anticancer Drug Screen. Data for the wt1 strain (AID 149);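 note: 0% = growth of vehicle-treated wt1 cultures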
Conditions: S. cerevisiae wt1 strain (SPY 50644) growth inhibition, active compounds read high
Protocol: Growth inhibition of yeast strains with defined genetic alterations is measured as a screen for potential anti-cancer activity. Selected strains with alterations in DNA damage repair or cell cycle control were exposed to compounds and growth inhibition was measured relative to vehicle treated controls. The strain used in this assay is wt1

Structure (SMILES)	growth inhibition (at 1.2 µM)	growth inhibition (at 3.7 µM)	growth inhibition (at 11.0 µM)	growth inhibition (at 33.0 µM)	growth inhibition (at 100.0 µM)
ClCCN1CCCCC1CCl (stereo not given)	inactive: -2%	inactive: 1%	inactive: 1%	inactive: 6%	inactive: 26%
COc1ccc([N+](=O)[O-])c(C[N+](C)(CCCl)CCCl)c1	inactive: -14%	inactive: -11%	inactive: -8%	inactive: 2%	inactive: 12%
COc1ccc(C[N+](C)(CCCl)CCCl)c([N+](=O)[O-])c1	inactive: -2%	inactive: 0%	inactive: -2%	inactive: 0%	inactive: 2%
Cc1ccc([N+](=O)[O-])c(C[N+](C)(CCCl)CCCl)c1	inactive: 17%	inactive: 16%	inactive: 22%	inactive: 44%	active: 82%
Cc1cccc(C[N+](C)(CCCl)CCCl)c1[N+](=O)[O-]	inactive: 21%	inactive: 26%	inactive: 23%	inactive: 36%	active: 85%
Cn1cnc([N+](=O)[O-])c1C[N+](C)(CCCl)CCCl	inactive: -9%	inactive: -6%	inactive: 1%	inactive: 24%	inactive: 58%
